We go through one molecule from ChEMBL document CHEMBL5325495, “Synthesis and anti-cancer potential of potent peripheral MAOA inhibitors designed to limit blood:brain penetration” (Bioorg Med Chem, 2023).

Protein sequences, listed by entry. Tags and fused reporters are not part of them.
UniProt P27338, whole entry: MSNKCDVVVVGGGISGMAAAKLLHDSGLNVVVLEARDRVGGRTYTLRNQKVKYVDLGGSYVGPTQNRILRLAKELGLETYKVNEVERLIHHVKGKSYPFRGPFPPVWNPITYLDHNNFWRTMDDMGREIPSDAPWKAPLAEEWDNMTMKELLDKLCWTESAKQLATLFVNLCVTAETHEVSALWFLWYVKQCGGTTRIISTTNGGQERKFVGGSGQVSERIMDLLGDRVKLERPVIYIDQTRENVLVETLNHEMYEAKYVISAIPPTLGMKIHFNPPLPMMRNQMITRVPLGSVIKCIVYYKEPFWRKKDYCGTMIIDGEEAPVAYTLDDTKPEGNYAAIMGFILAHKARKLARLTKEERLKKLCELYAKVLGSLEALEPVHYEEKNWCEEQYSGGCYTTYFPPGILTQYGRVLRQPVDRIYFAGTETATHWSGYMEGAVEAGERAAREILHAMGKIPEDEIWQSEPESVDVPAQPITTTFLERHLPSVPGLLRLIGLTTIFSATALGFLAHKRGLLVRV

For orientation: IC50 means the concentration that inhibits the measured activity by half. Low readings indicate greater potency in that assay, high ones weaker potency in that assay.

This test deals with Amine oxidase [flavin-containing] B (Homo sapiens, UniProt P27338). Kind of test: biochemical. Type of test: cell-based, BTI.

Take `NNCCc1ccccc1` [PHENELZINE]: the midpoint of inhibition, the IC50, lay at 21.9 µM. In other words, the double-digit micromolar range.
